{
  "source": "paper PMC3498954",
  "about": "(Chembiochem : a European journal of chemical biology, 2012)",
  "assay": "Biodistribution of albumin using 99mTc-Vasculosis",
  "type": "in vivo",
  "conditions": "24h, average (±SD), n=3",
  "data": [
    {"substance": "^99mTc-HSA: 99mTc-labelled albumin (Vasculosis) used to determine the biodistribution of albumin", "values": [
      {"measurement": "Biodistribution of albumin, Axilary LN", "setting": "Axilary LN", "value": "1.86 (±0.26) % ID/g"},
      {"measurement": "Biodistribution of albumin, Blood", "setting": "Blood", "value": "3.74 (±0.21) % ID/g"},
      {"measurement": "Biodistribution of albumin, Brain", "setting": "Brain", "value": "0.10 (±0.01) % ID/g"},
      {"measurement": "Biodistribution of albumin, Fat (neck)", "setting": "Fat (neck)", "value": "0.48 (±0.04) % ID/g"},
      {"measurement": "Biodistribution of albumin, Heart", "setting": "Heart", "value": "1.31 (±0.24) % ID/g"},
      {"measurement": "Biodistribution of albumin, Inguinal LN", "setting": "Inguinal LN", "value": "0.81 (±0.22) % ID/g"},
      {"measurement": "Biodistribution of albumin, Intestines", "setting": "Intestines", "value": "1.83 (±0.12) % ID/g"},
      {"measurement": "Biodistribution of albumin, Kidneys", "setting": "Kidneys", "value": "3.83 (±0.25) % ID/g"},
      {"measurement": "Biodistribution of albumin, Liver", "setting": "Liver", "value": "1.98 (±0.16) % ID/g"},
      {"measurement": "Biodistribution of albumin, Lungs", "setting": "Lungs", "value": "1.80 (±0.43) % ID/g"},
      {"measurement": "Biodistribution of albumin, Mammary gland", "setting": "Mammary gland", "value": "0.68 (±0.40) % ID/g"},
      {"measurement": "Biodistribution of albumin, Muscle (paw)", "setting": "Muscle (paw)", "value": "0.27 (±0.13) % ID/g"},
      {"measurement": "Biodistribution of albumin, Spleen", "setting": "Spleen", "value": "1.52 (±0.16) % ID/g"},
      {"measurement": "Biodistribution of albumin, Stomach", "setting": "Stomach", "value": "0.81 (±0.13) % ID/g"}
    ]}
  ]
}
